Measured values: ChEMBL document CHEMBL5046283, “Design, Synthesis, and Biological Evaluation of the First Inhibitors of Oncogenic CHD1L” (J Med Chem, 2022)

Test: Microsomal stability in CD-1 mouse liver microsomes assessed as half life preincubated with NADPH for 5 mins followed by compound addition and measured upto 60 mins by LC-MS/MS analysis
Assay type: ADME, Microsome
Conditions: 1 h

Cc1cc(Nc2ccc(NC(=O)Cc3cc(Br)cs3)cc2)nc(N2CCCC2)n1
t1/2: 130 min
